Experiments:
[1] = molecular target: Human α-amylase (purchased from Sigma; from human saliva) (human)
[2] = molecular target: α-amylase from guts of adult cockroaches (Blatta orientalis), crude extract (Blatta orientalis (cockroach))

“SIα3 (Sorgum bicolor homologue) (from UniProt P21925)” was tested, and the α-amylase inhibition (starch hydrolysis, method of Bernfeld) [1] was > 70% and the α-amylase inhibition (starch hydrolysis, method of Bernfeld) [2] was 70%.
